# Reference: ChEMBL document CHEMBL1144303, “Structure-based design, synthesis and biochemical testing of novel and potent Smac peptido-mimetics” (Bioorg Med Chem Lett, 2005)
# Protein sequences, listed by entry. Tags and fused reporters are not part of them.
# UniProt P98170, whole entry: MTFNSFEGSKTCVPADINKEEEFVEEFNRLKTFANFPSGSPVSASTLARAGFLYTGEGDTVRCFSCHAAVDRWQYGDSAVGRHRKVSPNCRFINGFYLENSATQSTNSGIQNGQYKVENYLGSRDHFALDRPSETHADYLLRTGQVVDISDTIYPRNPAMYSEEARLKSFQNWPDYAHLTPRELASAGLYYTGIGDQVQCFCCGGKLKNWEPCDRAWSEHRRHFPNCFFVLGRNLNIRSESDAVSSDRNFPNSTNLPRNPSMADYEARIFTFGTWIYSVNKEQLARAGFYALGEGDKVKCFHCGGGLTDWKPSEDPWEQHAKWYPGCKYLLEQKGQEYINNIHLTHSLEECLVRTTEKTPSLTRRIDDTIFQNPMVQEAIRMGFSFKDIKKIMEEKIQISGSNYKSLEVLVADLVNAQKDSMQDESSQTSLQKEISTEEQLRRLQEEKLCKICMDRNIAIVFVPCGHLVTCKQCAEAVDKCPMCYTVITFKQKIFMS
# Target: E3 ubiquitin-protein ligase XIAP (Homo sapiens, UniProt P98170)
compound,measurement,value
CC(C)[C@H](NC(=O)[C@H](C)N)C(=O)N1CCC[C@H]1C(=O)NC(c1ccccc1)c1ccccc1,Ki,28 nM
